A short description of this data set: Dynamic small animal PET imaging, time activity curves over the heart region. As to conditions: TACs over heart region, two-phase exponential fit, tail vein injection of 18F tracer.

We go through one substance from US10709790B2, “Chemical conjugates of Evans Blue derivatives and their use in the production of long-acting therapeutics” (THE UNITED STATES OF AMERICA, AS REPRESENTED BY THE …, priority 2015, dated 2020).

In the case of Exendin-4, the “3 phase half-life (tβ1/2)” value is 5.88 h.
